Reference: ChEMBL document CHEMBL5154927, “Discovery of Novel Bicyclic Phenylselenyl-Containing Hybrids: An Orally Bioavailable, Potential, and Multiacting Class of Estrogen Receptor Modulators against Endocrine-Resistant Breast Cancer” (J Med Chem, 2022)

Amino acid sequences for entries named in this document (tags omitted).
UniProt Q92731, whole entry: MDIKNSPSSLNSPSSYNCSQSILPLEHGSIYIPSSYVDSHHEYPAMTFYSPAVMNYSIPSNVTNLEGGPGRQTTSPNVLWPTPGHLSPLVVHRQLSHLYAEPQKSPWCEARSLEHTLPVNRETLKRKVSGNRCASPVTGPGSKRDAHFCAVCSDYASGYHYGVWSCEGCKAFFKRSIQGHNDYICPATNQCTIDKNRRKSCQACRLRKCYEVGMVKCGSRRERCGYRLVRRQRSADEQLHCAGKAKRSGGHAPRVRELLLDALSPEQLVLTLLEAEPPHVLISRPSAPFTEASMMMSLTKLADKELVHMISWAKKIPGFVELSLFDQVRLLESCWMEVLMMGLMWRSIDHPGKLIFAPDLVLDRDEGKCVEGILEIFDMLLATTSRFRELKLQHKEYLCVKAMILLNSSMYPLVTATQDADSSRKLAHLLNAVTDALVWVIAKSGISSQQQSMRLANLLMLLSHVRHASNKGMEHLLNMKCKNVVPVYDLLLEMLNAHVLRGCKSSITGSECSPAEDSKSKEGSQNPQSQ

Tests used:
[1] = target: Estrogen receptor beta (Homo sapiens) (UniProt Q92731); experiment: Relative binding affinity to human ERbeta measured after 2 hrs by competitive fluorometric binding assay relative to estradiol
Homo sapiens = species: Homo sapiens; experiment: Selectivity ratio of relative binding affinity for human ERalpha to relative binding affinity for human ERbeta

| RBA [1] [%] | Ratio (Homo sapiens) | Compound |
| --- | --- | --- |
| 2.96 | 0.77 | O=S(=O)(Oc1ccc(C(F)(F)F)cc1)C1CC2OC1C(c1ccc(O)cc1)=C2c1ccc([Se]c2ccccc2)cc1 (centres undefined) |
| 0.08 | 7.25 | O=S(=O)(Oc1ccc([Se]c2ccccc2)cc1)C1CC2OC1C(c1ccc(O)cc1)=C2c1ccc(O)cc1 (centres undefined) |
| 3.13 | 0.54 | O=S(=O)(Oc1cccc(O)c1)C1CC2OC1C(c1ccc(O)cc1)=C2c1ccc([Se]c2ccccc2)cc1 (centres undefined) |
| 1.01 | 0.48 | O=S(=O)(Oc1ccc(Cl)cc1)C1CC2OC1C(c1ccc(O)cc1)=C2c1ccc([Se]c2ccccc2)cc1 (centres undefined) |
| 2.77 | 2.74 | O=S(=O)(Oc1ccccc1)C1CC2OC1C(c1ccc(O)cc1)=C2c1ccc(O)cc1 (centres undefined) |
| 0.25 | 20.8 | O=S(=O)(Oc1ccc(Cl)cc1)C1CC2OC1C(c1ccc([Se]c3ccccc3)cc1)=C2c1ccc(O)cc1 (centres undefined) |
| 0.2 | 6.95 | O=S(=O)(Oc1cccc(Cl)c1)C1CC2OC1C(c1ccc([Se]c3ccccc3)cc1)=C2c1ccc(O)cc1 (centres undefined) |
| 1.02 | 1.18 | O=S(=O)(Oc1cccc([Se]c2ccccc2)c1)C1CC2OC1C(c1ccc(O)cc1)=C2c1ccc(O)cc1 (centres undefined) |
| 1.44 | 0.79 | O=S(=O)(Oc1ccc(Br)cc1)C1CC2OC1C(c1ccc(O)cc1)=C2c1ccc([Se]c2ccccc2)cc1 (centres undefined) |
| 1.44 | 3.95 | Cc1ccc(OS(=O)(=O)C2CC3OC2C(c2ccc([Se]c4ccccc4)cc2)=C3c2ccc(O)cc2)cc1 (centres undefined) |
| 0.63 | 0.11 | O=S(=O)(Oc1ccc(C(F)(F)F)cc1)C1CC2OC1C(c1ccc([Se]c3ccccc3)cc1)=C2c1ccc(O)cc1 (centres undefined) |
| 0.21 | 1.29 | COc1ccc(OS(=O)(=O)C2CC3OC2C(c2ccc([Se]c4ccccc4)cc2)=C3c2ccc(O)cc2)cc1 (centres undefined) |
| 0.51 | 1.22 | O=S(=O)(Oc1cccc2ccccc12)C1CC2OC1C(c1ccc(O)cc1)=C2c1ccc([Se]c2ccccc2)cc1 (centres undefined) |
| 1.95 | 0.85 | COc1ccc(OS(=O)(=O)C2CC3OC2C(c2ccc(O)cc2)=C3c2ccc([Se]c3ccccc3)cc2)cc1 (centres undefined) |
| 0.71 | 5.52 | O=S(=O)(Oc1ccc(Br)cc1)C1CC2OC1C(c1ccc([Se]c3ccccc3)cc1)=C2c1ccc(O)cc1 (centres undefined) |
| 0.85 | 2.08 | COc1cccc(OS(=O)(=O)C2CC3OC2C(c2ccc(O)cc2)=C3c2ccc([Se]c3ccccc3)cc2)c1 (centres undefined) |
| 0.11 | 11.4 | O=S(=O)(Oc1cccc(Br)c1)C1CC2OC1C(c1ccc([Se]c3ccccc3)cc1)=C2c1ccc(O)cc1 (centres undefined) |
| 0.51 | 1.59 | Cc1ccc(OS(=O)(=O)C2CC3OC2C(c2ccc(O)cc2)=C3c2ccc([Se]c3ccccc3)cc2)cc1 (centres undefined) |
| 0.09 | 6.8 | O=S(=O)(Oc1ccc(O)cc1)C1CC2OC1C(c1ccc(O)cc1)=C2c1ccc([Se]c2ccccc2)cc1 (centres undefined) |
| 0.61 | 1.77 | O=S(=O)(Oc1ccccc1)C1CC2OC1C(c1ccc(O)cc1)=C2c1ccc([Se]c2ccccc2)cc1 (centres undefined) |
| 1.48 | 4.32 | O=S(=O)(Oc1cccc(C(F)(F)F)c1)C1CC2OC1C(c1ccc([Se]c3ccccc3)cc1)=C2c1ccc(O)cc1 (centres undefined) |
| 0.97 | 6.82 | Cc1cccc(OS(=O)(=O)C2CC3OC2C(c2ccc([Se]c4ccccc4)cc2)=C3c2ccc(O)cc2)c1 (centres undefined) |
